The text below walks through data of ChEMBL document CHEMBL1130155, “Synthesis and structure-activity relationships of potent thrombin inhibitors: piperazides of 3-amidinophenylalanine” (J Med Chem, 1997).

Sequences of proteins named here, by UniProt entry; tags and fusion partners are left off. Residues count along the entry.
UniProt P00747, 97-580 limits assumed: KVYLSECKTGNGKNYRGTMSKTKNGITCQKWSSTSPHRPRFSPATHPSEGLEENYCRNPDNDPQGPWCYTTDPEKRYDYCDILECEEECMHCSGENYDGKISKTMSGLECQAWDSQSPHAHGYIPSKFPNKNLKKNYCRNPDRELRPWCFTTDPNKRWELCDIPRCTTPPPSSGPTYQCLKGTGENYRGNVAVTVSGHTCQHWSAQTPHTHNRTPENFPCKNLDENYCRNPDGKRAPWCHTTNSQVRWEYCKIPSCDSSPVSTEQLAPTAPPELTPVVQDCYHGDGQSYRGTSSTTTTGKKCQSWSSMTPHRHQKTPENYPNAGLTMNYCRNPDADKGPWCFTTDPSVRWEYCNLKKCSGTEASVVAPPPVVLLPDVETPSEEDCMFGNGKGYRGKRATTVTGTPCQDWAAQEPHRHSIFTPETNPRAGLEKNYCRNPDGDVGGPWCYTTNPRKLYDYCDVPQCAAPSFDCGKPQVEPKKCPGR
UniProt P00747, 581-810 limits assumed: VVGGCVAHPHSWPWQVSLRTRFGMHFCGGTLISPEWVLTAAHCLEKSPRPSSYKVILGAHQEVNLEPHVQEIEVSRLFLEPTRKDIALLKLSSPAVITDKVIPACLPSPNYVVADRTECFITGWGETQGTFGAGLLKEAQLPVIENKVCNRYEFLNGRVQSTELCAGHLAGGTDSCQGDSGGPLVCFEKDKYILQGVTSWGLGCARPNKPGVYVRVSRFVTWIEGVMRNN

By Ki is commonly meant a dissociation constant, usually derived from enzyme kinetics or from competition with a known ligand.

One experiment has as its target Plasminogen (Homo sapiens, UniProt P00747). In words: Inhibitory activity against Plasmin.
A further experiment has as its target Prothrombin (Bos taurus, UniProt P00735).

In the case of `N=C(N)c1ccc(C[C@@H](NC(=O)CNS(=O)(=O)c2ccc3ccccc3c2)C(=O)N2CCCCC2)cc1`, the Ki on Plasminogen is 30 µM.

`CC(=O)N1CCN(C(=O)[C@@H](Cc2cccc(C(=N)N)c2)NS(=O)(=O)c2ccc3ccccc3c2)CC1` gave a Ki at Prothrombin of 12 nM.

`CS(=O)(=O)N1CCN(C(=O)[C@@H](Cc2cccc(C(=N)N)c2)NS(=O)(=O)c2ccc3ccccc3c2)CC1` had a Ki at Prothrombin of 2.1 nM.

At Prothrombin, `CC(=O)N1CCN(C(=O)[C@H](Cc2cccc(C(=N)N)c2)NS(=O)(=O)c2ccc3ccccc3c2)CC1` returned a Ki of 1900 nM.

Compound `CS(=O)(=O)N1CCN(C(=O)[C@H](Cc2cccc(C(=N)N)c2)NS(=O)(=O)c2ccc3ccccc3c2)CC1` gave a Ki at Prothrombin of 490 nM.
